Measured values from PubChem BioAssay AID501 (PCMD, 2006).
The list shows a part of the results, in another mix than the full data. The source made the active and inactive calls. Rule as the data show it: active = inhibition above about 32% (passing the limit was not always enough); inconclusive = no clear call, values can overlap the other calls.

The chains behind the UniProt entries cited, without tags or fusion partners. Residues count along the entry.
UniProt P25774, 115-331 limits assumed: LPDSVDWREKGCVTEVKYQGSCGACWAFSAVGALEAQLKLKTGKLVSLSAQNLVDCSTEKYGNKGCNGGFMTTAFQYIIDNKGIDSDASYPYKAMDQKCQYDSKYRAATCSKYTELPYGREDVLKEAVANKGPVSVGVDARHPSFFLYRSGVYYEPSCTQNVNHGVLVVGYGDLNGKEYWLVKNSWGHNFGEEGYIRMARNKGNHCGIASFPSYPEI

molecular target: Cathepsin S (Homo sapiens) (UniProt P25774); test: blockers of CTSS protease activity – biochemical, compound mixtures (AID 501); details: recombinant cathepsin S, AMC dipeptide fluorescence, pooled mixtures; stronger effect = higher value;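 tested at 5 µM per compound within 10-compound mixtures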;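 also: 0% = enzyme without compound and 100% = blank without enzyme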

Row | Structure (SMILES) | inhibition
1 | O=C(OC1CN2CCC1CC2)C1c2ccccc2Oc2ccccc21 (stereo unspecified) | inactive: -9.91%
2 | N#CC1(Nc2ccccc2)CCN(CCc2ccccc2)CC1 | inactive: -0.165%
3 | N/C(=N\O)c1c(N)no[n+]1[O-] | inactive: 0.325%
4 | Fc1ccccc1NC1CCN(Cc2ccccc2)CC1 | inactive: -22.3%
5 | CCC(CO)(C(=O)OC1CN2CCC1CC2)c1ccccc1 (stereo unspecified) | inactive: 2.47%
6 | CCOc1ncccc1C(=O)NCC1(N2CCOCC2)CCCCC1 | inactive: -1.99%
